Each compound was assayed against recombinant human CK2 (Homo sapiens (Human), UniProt P68400) (assay: CK2 assay (cell-free, radiometric, substrate peptide […])). Details: Table 11; read-out: CK2 IC50.
Format: biochemical

Sequences of proteins named here, by UniProt entry; tags and fusion partners are left off.
UniProt P68400, whole entry: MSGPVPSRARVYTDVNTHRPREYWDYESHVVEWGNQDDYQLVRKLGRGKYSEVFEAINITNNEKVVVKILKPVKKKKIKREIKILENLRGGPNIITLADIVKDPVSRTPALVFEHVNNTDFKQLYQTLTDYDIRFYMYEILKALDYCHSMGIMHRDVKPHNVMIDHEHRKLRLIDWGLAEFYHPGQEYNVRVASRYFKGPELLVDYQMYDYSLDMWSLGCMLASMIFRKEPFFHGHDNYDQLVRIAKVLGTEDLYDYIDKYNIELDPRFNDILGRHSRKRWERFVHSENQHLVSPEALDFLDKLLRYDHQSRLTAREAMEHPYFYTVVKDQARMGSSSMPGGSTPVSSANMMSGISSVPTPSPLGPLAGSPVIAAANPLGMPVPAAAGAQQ

Row | Compound | IC50
1 | COC(=O)c1ccc2c(c1)nc(Cl)c1ccsc12 [drawing 429] | > 10 µM
2 | O=C(NCCCO)c1ccc2c(c1)nc(NCCCO)c1ccsc12 [drawing 430] | > 10 µM
3 | Clc1nc2ccccc2c2sccc12 [drawing 443] | > 5 µM

Same assay, conditions: read-out: CK2: IC50 (uM) (15 uM ATP); 15 uM ATP; Table 13

Row | Compound | IC50
4 | CN(C)c1ncc2c(n1)c(NC1CC1)nc1cc(C(=O)O)ccc12 | > 0.75 µM
5 | O=C(O)c1ccc2c(c1)nc(NC1CC1)c1nc(SCc3ccccc3Cl)ncc12 [drawing 635] | > 0.75 µM
6 | O=C(O)c1ccc2c(c1)nc(Nc1cncc(C3CC3)c1)c1ccncc12 [drawing 640] | > 0.75 µM
7 | O=C(O)c1ccc2c(c1)nc(N1CCOCC1)c1nc(NC3CC3)ncc12 [drawing 648] | > 0.75 µM
8 | COC(=O)c1ccc2c(c1)nc(NC1CC1)c1nc(SC)ncc12 [drawing 662] | > 0.75 µM
9 | CN(C)CCNc1nc2cc(C(=O)O)ccc2c2cnc(NC3CC3)nc12 [drawing 663] | > 0.75 µM

Source: patent US9062043B2, “Fused tricyclic compounds as serine-threonine protein kinase and PARP modulators” (SENHWA BIOSCIENCES, INC., priority 2006, dated 2015)
